What follows are compounds tested against human serotonin transporter (hSERT) (Homo sapiens, UniProt P31645) (assay: Inhibition of [125I]RTI-55 binding in HEK-hSERT cell membranes). Conditions: Binding (Ki, nM) hSERT.

By UniProt entry, the sequences of proteins in these tests, tags left out.
UniProt P31645, whole entry: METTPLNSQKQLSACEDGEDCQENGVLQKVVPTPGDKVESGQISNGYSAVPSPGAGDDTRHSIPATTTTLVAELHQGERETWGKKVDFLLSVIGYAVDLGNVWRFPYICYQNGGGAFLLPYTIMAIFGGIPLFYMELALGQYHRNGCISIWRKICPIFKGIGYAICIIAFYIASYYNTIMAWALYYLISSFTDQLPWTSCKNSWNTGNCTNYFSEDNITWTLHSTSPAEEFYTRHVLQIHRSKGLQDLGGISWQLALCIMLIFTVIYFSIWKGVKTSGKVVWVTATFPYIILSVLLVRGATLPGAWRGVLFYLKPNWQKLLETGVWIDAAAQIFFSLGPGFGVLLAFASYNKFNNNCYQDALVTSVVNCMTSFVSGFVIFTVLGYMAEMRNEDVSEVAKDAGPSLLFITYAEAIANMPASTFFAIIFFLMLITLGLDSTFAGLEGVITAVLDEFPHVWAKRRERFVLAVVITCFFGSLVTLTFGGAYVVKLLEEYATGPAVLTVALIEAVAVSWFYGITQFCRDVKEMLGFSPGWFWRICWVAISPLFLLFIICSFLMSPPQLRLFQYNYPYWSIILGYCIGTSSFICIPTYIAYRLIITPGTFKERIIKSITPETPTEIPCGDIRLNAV

Row | SMILES | Ki [nM]
1 | COc1ccc(F)cc1CCC[C@H]1CC[C@@H](CN)O1 (relative stereo) [Compound 18n] | 2.8
2 | COc1ccc(F)cc1CCC[C@@H]1CC[C@@H](CN)O1 (stereo in doubt) [trans-2-amino-methyl-5-((2″-methoxy-5″- fluorophenyl)-3′-propyl)tetra-hydrofuran] | 0.8

Same assay, conditions: Binding (Ki, nM) hSERT, Table 1

Row | Ki [nM] | SMILES
3 | 4520 | COc1ccc(CCC2CCC(CN)O2)cc1OC (stereo not drawn) [2-(aminomethyl)-5-(3′,4′di-methoxy-phenethyl) tetrahydrofuran]
4 | 78200 | NC[C@@H]1CC[C@@H](c2ccccn2)O1 (relative stereo) [trans-2-(aminomethyl)-5-(2′-pyridyl) tetrahydrofuran.]
5 | > 10000 | NCCC1CCC(c2ccc(F)cc2)O1 (stereo not drawn) [2-(aminoethyl)-5-(4′-fluorophenyl) tetrahydrofuran]
6 | 944 | NCCC1CCC(c2ccc(Br)cc2)O1 (stereo not drawn) [2-(aminoethyl)-5-(4′-bromophenyl) tetrahydrofuran]
7 | 11400 | NCC1CCC(c2cnc3ccccc3c2)O1 (stereo not drawn) [2-(amino-methyl)-5-(3′-quinoline) tetrahydrofuran]
8 | > 10000 | CC(C)(C)c1ccc(C2CCC(CCN)O2)cc1 (stereo not drawn) [2-(aminoethyl)-5-(4′-t-butylphenyl) tetrahydrofuran]
9 | 228 | COc1ccc2ccccc2c1CCC1CCC(CN)O1 (stereo not drawn) [2-(aminomethyl)-5-(2′-methoxy-1′-napheyhyl) tetrahydrofuran]
10 | 9190 | NCC1CCC(CCc2ccc(F)cc2)O1 (stereo not drawn) [2-(amino-methyl)-5-(4′-fluorophenethyl) tetrahydrofuran]
11 | 13800 | COc1ccc(F)cc1C1CC[C@@H](CCNCCc2ccccc2)O1 (stereo partly drawn) [Cis-2-(Phenethyl-aminoethyl)-5-(2′-methoxy-5′-fluorophenyl) tetrohydrofuran]
12 | > 10000 | NCCC1CCC(C2CCCCC2)O1 (stereo not drawn) [2-(aminoethyl)-5-cyclohexyl tetrahydrofuran,]

Row | SMILES | Ki [nM]
13 | NCCC1CCC(CCc2ccncc2)O1 (stereo not drawn) [2-(aminoethyl)-5-(4′-pyridylethyl) tetrahydrofuran,] | 15400

Same assay, conditions: Binding (Ki, nM) hSERT, Table 6

Row | Ki [nM] | SMILES
14 | 4580 | C(=C[C@@H]1CCCN1)c1ccccc1 (stereo in doubt) [2-Styrenyl Pyrrolidine]

Same assay, conditions: Binding (ki, nM) hSERT, Table 2

Row | Ki [nM] | SMILES
15 | 2580 | Cc1ccc(CCC2CCC(CCNCCC3CCC(CCc4ccc(C)c(F)c4)O3)O2)cc1F (stereo not drawn) [N,N-bis(5′-(m-fluoro-p-methyl-phenethyl)-2′-tetrahydro-furylethyl) amine]
16 | 61 | COc1ccc(F)cc1C[C@H]1CC[C@H](CCNCC[C@@H]2CC[C@@H](Cc3cc(F)ccc3OC)O2)O1 [N,N-Bis (trans-5′-(2″- methoxy-5″-fluoro-benzyl-2′-tetrahydro-furyl)-2-ethyl)amine]
17 | 386 | Oc1ccc(CCC2CCC(CCNCCC3CCC(CCc4ccc(O)cc4)O3)O2)cc1 (stereo not drawn) [N,N-bis (5′-(p-hydroxy-phenethyl)-2′-tetra-hydrofuryl-ethyl) amine]
18 | 2030 | COc1ccc2ccccc2c1CCC1CCC(CCNCCC2CCC(CCc3c(OC)ccc4ccccc34)O2)O1 (stereo not drawn) [N,N-bis(5′-(2″- methoxy-1″-naphth-ethyl)-2′-tetra-hydrofuryl-ethyl) amine]
19 | 128 | Brc1ccc(C2CCC(CCNCCC3CCC(c4ccc(Br)cc4)O3)O2)cc1 (stereo not drawn) [N,N-bis(5′-(p-bromo-phenyl)-2′-tetra-hydrofuryl-ethyl) Amine]
20 | 75 | COc1ccc(F)cc1CCC1CCC(CCNCCC2CCC(CCc3cc(F)ccc3OC)O2)O1 (stereo not drawn) [N,N-bis(5′-(5″-fluoro-2″- methoxy-phenethyl)-2′-tetrahydrofurylethyl) Amine]

Same assay, conditions: hSERT binding Ki

Row | SMILES | Ki [nM]
21 | NCC1CCC(CCc2cccc3ccccc23)O1 (stereo not drawn) [Compound 15a, 2-(Aminomethyl)-5-(1′-naphthethyl)tetrahydrofuran] | 18.5

Same assay, conditions: read-out: Binding (Ki, nM) hSERT; Table 1

Row | Ki [nM] | SMILES
22 | 68 | NCC1CCC(CCc2ccccc2)O1 (stereo not drawn) [2-(aminomethyl)-5-(phenethyl) tetrahydrofuran]
23 | 86 | COc1ccc2ccccc2c1CCC1CCC(CCN)O1 (stereo not drawn) [2-(aminoethyl)-5-(2′-methoxy-1′-naphethyl) tetrahydrofuran,]

Same assay, conditions: read-out: hSERT binding Ki; text of Example 28

Row | Ki [nM] | SMILES
24 | 85.6 | COc1ccc2ccccc2c1CCC1CCC(CCN)O1 (stereo not drawn) [Compound 17a, 2-Aminoethyl-5-(2′-methoxy1-1′-naphthethyl)tetrahydrofuran]

Reference: patent US20130123253A1, “MODULATORS OF CENTRAL NERVOUS SYSTEM NEUROTRANSMITTERS” (HUMAN BIOMOLECULAR RESEARCH INSTITUTE, priority 2004, published 2013)
